What was measured:
Type in all cases: binding
HLA-DRB1*04:01 monomer = target: T1, HLA-DRB1*04:01 monomer (Homo sapiens, UniProt P01903+P01911, A100K/A169T/F76Y/I96L/K127E/L162R/M171V/N62H/P40V/Q125Y/R42H/S133A/S149N/S66Y/V115G/V209L/W38E)
T1 construct: the extracellular domain of the MHC class II α chain and β chain to which leucine zipper motifs are added; leucine zipper motif

HLA-DRB1*03:01 monomer = target: T2, HLA-DRB1*03:01 monomer (Homo sapiens, UniProt P01903+P01911, A100K/A102G/A103R/A169T/F55Y/I96L/K41T/L162R/M171V/P40S/Q125H/Q178H/Q39Y/R42S/S66N/T106N/T262R/W38E/Y61H)
T2 construct: the extracellular domain of the MHC class II α chain and β chain to which leucine zipper motifs are added; leucine zipper motif

HLA-DRB1*01:01 tetramer = HLA-DRB1*01:01 tetramer (Homo sapiens, UniProt P01903+P01911, A100R/D57E/F55L/F60I/F76Y/I96L/L162R/M171V/P40L/Q125E/R42F/V115G/Y59C)

## CC[C@H](C)[C@H](NC(=O)[C@H](CCCNC(=N)N)NC(=O)[C@@H](NC(=O)[C@H](CC(C)C)NC(=O)[C@H](CC(C)C)NC(=O)[C@H](Cc1ccccc1)NC(=O)[C@H](Cc1ccccc1)NC(=O)CNC(=O)[C@H](C)N)[C@@H](C)O)C(=O)N[C@@H](CC(C)C)C(=O)N[C@H](C(=O)N[C@H](C(=O)N1CCC[C@H]1C(=O)N[C@@H](CCC(N)=O)C(=O)N[C@@H](CO)C(=O)O)[C@@H](C)CC)[C@@H](C)O
HLA-DRB1*04:01 monomer
  % pept exch: 78.22%
HLA-DRB1*03:01 monomer
  % pept exch: 83.59%
HLA-DRB1*01:01 tetramer
  % pept exch: 88.7%

From patent publication US20220177542A1 (priority 2020, published 2022)
